In ChEMBL document CHEMBL1154735, “A strategy to minimize reactive metabolite formation: discovery of (S)-4-(1-cyclopropyl-2-methoxyethyl)-6-[6-(difluoromethoxy)-2,5-dimethylpyridin-3-ylamino]-5-oxo-4,5-dihydropyrazine-2-carbonitrile as a potent, orally bioavailable corticotropin-releasing factor-1 receptor antagonist” (J Med Chem, 2009):

Test: Metabolic stability in human liver microsomes assessed as compound remaining at 3 uM after 10 mins by HPLC/UV/MS analysis
Type: ADME, Microsome
Conditions: read-out: Stability
Procedure, shortened: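 Pooled human or rat liver microsomes (1 mg/mL protein) with 3 μM compound and 1.3 mM NADPH in 100 mM sodium phosphate pH 7.4 at 37 °C; final 0.015% DMSO, 0.985% acetonitrile; stopped at 0 and 10 min, percent remaining by LC/MS/MS.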

- remaining at 10 min, 3 µM: 93%
SMILES: COC[C@H](C1CC1)n1cc(Cl)nc(Nc2cc(C)c(OC(F)F)nc2C)c1=O
